This is one part of the list.
T1: LIN28A (human?, UniProt Q9H9Z2 1-209)
T1 sequence: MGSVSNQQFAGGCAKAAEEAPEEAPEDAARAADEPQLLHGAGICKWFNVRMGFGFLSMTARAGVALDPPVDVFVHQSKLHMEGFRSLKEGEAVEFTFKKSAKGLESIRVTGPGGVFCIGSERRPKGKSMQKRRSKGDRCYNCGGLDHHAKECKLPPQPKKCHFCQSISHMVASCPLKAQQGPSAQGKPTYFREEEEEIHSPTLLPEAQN

T2: CIRBP (Homo sapiens, UniProt Q14011 1-172)
T2 sequence: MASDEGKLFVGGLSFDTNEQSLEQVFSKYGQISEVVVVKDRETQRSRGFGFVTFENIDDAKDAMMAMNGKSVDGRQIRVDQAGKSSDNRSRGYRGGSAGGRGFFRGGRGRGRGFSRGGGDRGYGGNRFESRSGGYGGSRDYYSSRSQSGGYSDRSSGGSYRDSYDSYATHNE

T3: DHX36 (Homo sapiens, UniProt Q9H2U1 1-1008)
T3 sequence: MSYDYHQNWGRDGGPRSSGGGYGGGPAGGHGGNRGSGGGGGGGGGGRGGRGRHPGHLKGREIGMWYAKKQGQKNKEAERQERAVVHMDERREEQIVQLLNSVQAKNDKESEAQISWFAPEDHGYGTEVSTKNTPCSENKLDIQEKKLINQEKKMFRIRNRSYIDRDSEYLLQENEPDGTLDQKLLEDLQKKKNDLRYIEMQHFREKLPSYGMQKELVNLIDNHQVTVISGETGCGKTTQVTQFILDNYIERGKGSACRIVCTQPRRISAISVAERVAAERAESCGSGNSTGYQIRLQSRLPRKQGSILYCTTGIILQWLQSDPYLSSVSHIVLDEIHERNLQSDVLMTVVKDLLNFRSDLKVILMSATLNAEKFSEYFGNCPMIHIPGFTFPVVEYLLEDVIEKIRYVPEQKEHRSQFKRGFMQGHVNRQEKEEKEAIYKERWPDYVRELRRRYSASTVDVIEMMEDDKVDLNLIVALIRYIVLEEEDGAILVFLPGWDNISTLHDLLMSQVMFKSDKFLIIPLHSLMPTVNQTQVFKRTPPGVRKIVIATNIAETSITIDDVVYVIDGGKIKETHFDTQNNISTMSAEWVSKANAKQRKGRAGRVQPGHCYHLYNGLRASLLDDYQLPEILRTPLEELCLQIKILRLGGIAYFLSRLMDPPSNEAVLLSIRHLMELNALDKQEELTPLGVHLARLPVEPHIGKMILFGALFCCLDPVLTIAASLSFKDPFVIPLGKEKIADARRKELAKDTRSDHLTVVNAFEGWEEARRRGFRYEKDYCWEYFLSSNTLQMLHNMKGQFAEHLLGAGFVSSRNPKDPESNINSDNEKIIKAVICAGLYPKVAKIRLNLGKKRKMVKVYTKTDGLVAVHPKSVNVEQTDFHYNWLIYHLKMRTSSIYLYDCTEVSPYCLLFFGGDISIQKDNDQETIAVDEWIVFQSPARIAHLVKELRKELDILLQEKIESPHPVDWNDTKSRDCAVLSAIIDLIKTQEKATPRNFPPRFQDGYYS

B1: hsa-mir-4511 (structured_RNA)
RNA: GGGACAUCUGGAGAUGCAUAUCGCCCAUGGUGUACGAAGUUUCAGCCCCUGCACUCAGUUUGCACAGGGGCUGAAGCUUCGUGCAC
B2: hsa-mir-6765 (structured_RNA)
RNA: GGGAAAUAGUGGCAUUGCUAUAGGCACCGGUGUACGAAGUUUCAGCGUGUGUGGCGUGGGUGCUGCGGGGCCGUCAGGGUGCCUGCGGGACGCUCACGCUGAAGCUUCGUGCAC
B3: hsa-mir-4439 (structured_RNA)
RNA: GGGAAGAGUGCCGUGACCUAGCUUUUACGGUGUACGAAGUUUCAGCGCAUUUUAUCUAAGAUACACACAAAGCAAAUGCGCUGAAGCUUCGUGCAC
B4: hsa-mir-128-2 (structured_RNA)
RNA: GGGACUAGACAGUUACGCCUUCGAACUUGGUGUACGAAGUUUCAGCACGAGAGUGAGUAGCAGGUCUCGCUGAAGCUUCGUGCAC
B5: hsa-mir-147a (structured_RNA)
RNA: GGGAUACUAAAGCCGGAUAACUACCUGGGGUGUACGAAGUUUCAGCACACACACCAGACUAUGGAAGCCAGUGUGCUGAAGCUUCGUGCAC
B6: hsa-mir-384 (structured_RNA)
RNA: GGGAGCCAAUAGCCUCCCACGAUACCUGGGUGUACGAAGUUUCAGCGACAAUAUGUAUAAUGUUCAUAAGUCAUUCGCUGAAGCUUCGUGCAC
B7: hsa-mir-4635 (structured_RNA)
RNA: GGGAAGGACUCGGCGAUAAGUGAUAACUGGUGUACGAAGUUUCAGCUGGAUCACGCCGACAACACUGGUCUGCUGAAGCUUCGUGCAC
B8: hsa-let-7i (structured_RNA)
RNA: GGGAAGACUCGAAAGUGUGUCCUGGCGAGGUGUACGAAGUUUCAGCGCUGUUGGUCGGGUUGUGACAUUGCCCGCUGUGGAGAUAACUGCGCUGAAGCUUCGUGCAC
B9: hsa-mir-5196 (structured_RNA)
RNA: GGGACAAAGACAAGGUAGGUGCGUAAUAGGUGUACGAAGUUUCAGCGUUGGGGAACAGGUGGUUAGCACUUCAUGCUGAAGCUUCGUGCAC
B10: hsa-mir-103b-1 (structured_RNA)
RNA: GGGAACGAAUAGGAAGGACGACAAUAUCGGUGUACGAAGUUUCAGCUGCUUGAUCCAUAUGCAACAAGGCAGCUGAAGCUUCGUGCAC
B11: hsa-mir-6807 (structured_RNA)
RNA: GGGAAUAGGCGGCCUACUAUCCAUCUCGGGUGUACGAAGUUUCAGCAGAGGCUGUGGGCAGGGGGAGAUGUGAAGGAAAGAACUAGGACCCAUUCAUCCACUGCUGAAGCUUCGUGCAC
B12: hsa-mir-3660 (structured_RNA)
RNA: GGGAAGAGCCCUUAUGGGGAAAACCACAGGUGUACGAAGUUUCAGCCAUUGUAAUAGUUCAUAUGGGCACUGGCUGAAGCUUCGUGCAC
B13: G4_(GGGU)6 (structured_RNA)
RNA: GGGAACUCCUCCGGCUACGAUAGAGAGGGGUGUACGAAGUUUCAGCGGGUGGGUGGGUGGGUGGGUGGGUGCUGAAGCUUCGUGCAC
B14: hsa-mir-614 (structured_RNA)
RNA: GGGAAUCUCGCGCCGGUCACUCUUUGAGGGUGUACGAAGUUUCAGCCAGCCCUGCACUGAACGCUGAAGCUUCGUGCAC
B15: hsa-mir-4643 (structured_RNA)
RNA: GGGAGCUUCGCAACGCCGAUACACACAUGGUGUACGAAGUUUCAGCUGUUCAUUCACAUGAUCAUAAGUGGACAGCUGAAGCUUCGUGCAC
B16: hsa-mir-4489 (structured_RNA)
RNA: GGGAUAGGGUUAAGAUACCGGCGUUUGCGGUGUACGAAGUUUCAGCGCUGGGGACUGGAGAAGCUGAAGCUUCGUGCAC
B17: hsa-mir-212 (structured_RNA)
RNA: GGGAACGCGGAUAGUUGAUUUUCCUGCGGGUGUACGAAGUUUCAGCCUUACUGCCCGGGCCGCCCUCAGUAAGCUGAAGCUUCGUGCAC
B18: hsa-mir-4686 (structured_RNA)
RNA: GGGAAAUCAUUGAGCUCGACAUAUAGGCGGUGUACGAAGUUUCAGCUGUUGGCAGCCCAAGAUGACAGCUGAAGCUUCGUGCAC
B19: hsa-mir-6815 (structured_RNA)
RNA: GGGACACAUGUGGCCGACCAUUGAAUAGGGUGUACGAAGUUUCAGCGUCAUUUCCCAUCACUAAUGGCGCUGAAGCUUCGUGCAC
B20: PARIS_ID44 (structured_RNA)
RNA: GGGAAAUAACGCCGGAUCUUAGUGUAAUGGUGUACGAAGUUUCAGCGGCUGUGGAGUGUAUGAAUUUAUAAAUCACUGGUCUUGUAAUUAAAAUUCAAACACUAUAGAAAAAGGCCGCUGAAGCUUCGUGCAC
B21: hsa-mir-3975 (structured_RNA)
RNA: GGGAAGCUUGCACCACGUAAGGAGGUCCGGUGUACGAAGUUUCAGCUAUUUCAAAAGACUAGAGGUAGGAAAUGAGGCUGAAGCUUCGUGCAC
B22: hsa-mir-138-1 (structured_RNA)
RNA: GGGACAGAUCAACCAGGGGAUGACUAAUGGUGUACGAAGUUUCAGCAGGCCGUUGCCAAUCAGAGAACGGCUAGCUGAAGCUUCGUGCAC

Each binder was assayed against U1A (Homo sapiens, UniProt P09012) (assay: FOREST: bead pull-down of RNA structure library v1, barcode microarray; U1A/LIN28A: 20 mM HEPES pH 7.5, 80 mM KCl, 20 mM NaCl, 10% glycerol, 2 mM DTT, 0.1 ug/uL BSA, 4 C; BG4/CIRBP/DHX36: 10 mM Tris-HCl pH 7.5, 100 mM KCl (or LiCl),; high values mean tight binding).

Row | Binder | binding signal [z-score]
1 | B1 | 1.48
2 | B2 | 1.48
3 | B3 | 2.73
4 | B4 | 1.46
5 | B5 | 1.46
6 | B6 | 1.46
7 | B7 | 1.44
8 | B8 | 1.44
9 | B9 | 1.44
10 | B10 | 1.44
11 | B11 | 1.43
12 | B12 | 1.43
13 | B13 | 1.42
14 | B14 | 2.72
15 | B15 | 1.41
16 | B16 | 1.41
17 | B17 | 1.41
18 | B18 | 1.41
19 | B19 | 1.41
20 | B20 | 1.41
21 | B21 | 1.4
22 | B22 | 1.4

What follows are binders tested against T1, LIN28A in the same assay as above.

Row | Binder | binding signal [z-score]
23 | B1 | -1.43
24 | B2 | 0.343
25 | B3 | -0.0238
26 | B4 | 1.12
27 | B5 | -0.832
28 | B6 | 0.446
29 | B7 | 2.12
30 | B8 | 2.87
31 | B9 | 1.79
32 | B10 | 0.169
33 | B11 | 1.51
34 | B12 | -0.0695
35 | B13 | 0.639
36 | B14 | 0.813
37 | B15 | 0.0118
38 | B16 | 2.2
39 | B17 | 0.255
40 | B18 | -0.54
41 | B19 | -0.89
42 | B20 | 1.64
43 | B21 | 1.2
44 | B22 | 0.469

The binders below were run against T2, CIRBP in the same assay as above.

Row | Binder | binding signal [z-score]
45 | B1 | -0.99
46 | B2 | -0.61
47 | B3 | 0.0866
48 | B4 | 0.452
49 | B5 | -1.46
50 | B6 | -0.46
51 | B7 | -0.41
52 | B8 | 1.3
53 | B9 | 1.61
54 | B10 | 2.05
55 | B11 | -0.487
56 | B12 | 0.315
57 | B13 | 2.81
58 | B14 | -0.34
59 | B15 | 0.54
60 | B16 | 1.76
61 | B17 | -0.0218
62 | B18 | -0.828
63 | B19 | -0.144
64 | B20 | 1.47
65 | B21 | 0.295
66 | B22 | 1

Each binder was assayed against T3, DHX36 in the same assay as above.

Row | Binder | binding signal [z-score]
67 | B1 | -0.781
68 | B2 | 1.27
69 | B3 | 0.00469
70 | B4 | -0.0771
71 | B5 | -0.727
72 | B6 | 0.415
73 | B7 | -0.738
74 | B8 | 0.363
75 | B9 | 2.29
76 | B10 | 0.4
77 | B11 | 2.61
78 | B12 | -0.958
79 | B13 | 7.66
80 | B14 | -0.199
81 | B15 | 0.856
82 | B16 | 1.78
83 | B17 | -0.00438
84 | B18 | -0.596
85 | B19 | -1.09
86 | B20 | 0.605
87 | B21 | 0.0941
88 | B22 | 0.18

Source: PMC7723054
